Biological target: histamine H1 receptors (Cavia porcellus, UniProt P31389)
Experiment: biochemical

Chains of the proteins cited; added tags and fusions are not shown.
UniProt P31389, whole entry: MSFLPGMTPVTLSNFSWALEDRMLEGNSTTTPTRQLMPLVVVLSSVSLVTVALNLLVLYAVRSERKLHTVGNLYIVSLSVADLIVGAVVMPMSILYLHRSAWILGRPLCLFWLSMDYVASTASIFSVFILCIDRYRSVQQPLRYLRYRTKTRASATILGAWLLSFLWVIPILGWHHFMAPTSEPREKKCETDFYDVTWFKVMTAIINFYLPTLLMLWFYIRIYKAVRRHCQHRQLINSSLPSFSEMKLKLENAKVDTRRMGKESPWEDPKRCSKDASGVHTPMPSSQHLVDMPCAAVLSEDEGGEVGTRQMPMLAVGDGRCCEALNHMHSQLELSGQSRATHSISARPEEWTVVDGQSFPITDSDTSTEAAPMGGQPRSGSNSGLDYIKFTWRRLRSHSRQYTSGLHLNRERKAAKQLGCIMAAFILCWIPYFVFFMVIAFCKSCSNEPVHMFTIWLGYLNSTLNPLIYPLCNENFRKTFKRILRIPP

SMILES: CC(CN1c2ccccc2Sc2ccccc21)N(C)C (stereo not shown) [Promethazine, promethazine, reference compound]
- IC50: 0.893 nM
